Assay results as given in paper PMC6114104 (International Journal for Parasitology: Drugs and Drug …, 2018).

System: S. neurona + GFP/FLUC parasites
Assay: Luciferase-based S. neurona growth inhibition, EC50 determination
Settings: ratio of BT cell TC50 to S. neurona EC50

SMILES: Cc1c(C(=O)NN2CCCCC2)nn(-c2ccc(Cl)cc2Cl)c1-c1ccc(I)cc1 [AM-251]
- TI (TC50/EC50): 59
